Values quoted from earlier work as cited in patent publication US10858423B2, “Composition for the treatment of IGF-1R expressing cancer” (PIERRE FABRE MEDICAMENT, priority 2015, dated 2020).

Molecular target: IGF-1R (Homo sapiens, UniProt P08069)
Conditions: background statement; cited from earlier work

IGF1: insulin-like growth factor 1, ligand of IGF-1R
Kd: ~1 nM
